This is a selection; strong and weak results do not stand in their true shares. The source made the active and inactive calls. No stated cut-off is given here; in the data, active means inhibition mostly above about 23% (no sharp cut-off); inactive means mostly below about 18%.
target: 5-hydroxytryptamine receptor 5A (Homo sapiens) (UniProt P47898); test: HTR5A inverse agonists in luminescence cell assay, primary screen, counter-screen for OPRM1-OPRD1 heterodimer inverse agonist project, full-deck HTS (AID 504634); details: HTR5A cell line, inverse agonism, at 9.3 µM, active compounds read high;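 further: 0% = cells with DMSO and 100% = no-cell wells with DMSO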

Amino acid sequences for entries named in this document (tags omitted).
UniProt P47898, whole entry, looked up: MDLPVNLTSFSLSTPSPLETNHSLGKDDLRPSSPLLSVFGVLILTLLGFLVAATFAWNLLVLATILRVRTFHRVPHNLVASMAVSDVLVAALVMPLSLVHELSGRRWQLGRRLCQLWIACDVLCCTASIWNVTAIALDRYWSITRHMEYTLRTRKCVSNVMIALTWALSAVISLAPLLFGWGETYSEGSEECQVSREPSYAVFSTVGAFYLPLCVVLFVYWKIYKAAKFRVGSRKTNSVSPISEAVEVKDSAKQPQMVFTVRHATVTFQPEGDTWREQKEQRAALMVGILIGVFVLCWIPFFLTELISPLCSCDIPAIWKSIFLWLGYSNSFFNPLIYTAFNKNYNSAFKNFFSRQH

Question: For Fc1ccc(Cn2nnnc2CN2CCC(n3nnc4cc(C(F)(F)F)ccc43)CC2)cc1, which inhibition is on record?
Answer: inactive: 4.68%

Question: CN(C)CCCNC(=S)N1CCn2c(nc3ccccc32)C1 was tested. Which inhibition did it give?
Answer: inactive: -26.2%

Question: CC1(CBr)Cn2c(nc3ccccc3c2=O)S1 (configuration not stated) was tested. Which inhibition did it give?
Answer: inactive: 13.3%

Question: With COCCN(C(=O)Cn1c(C(F)(F)F)nc2ccccc21)c1c(N)n(Cc2ccccc2)c(=O)[nH]c1=O as the compound, how does the inhibition read?
Answer: inactive: -14.6%

Question: With CC(C)CN(C(=O)Cn1c(C(F)(F)F)nc2ccccc21)c1c(N)n(Cc2ccccc2)c(=O)[nH]c1=O as the compound, how does the inhibition read?
Answer: inactive: -6.66%

Question: With Brc1ccc(/C=N/c2nc3ccccc3n2CCN2CCOCC2)cc1 as the compound, how does the inhibition read?
Answer: inactive: 0.75%

Question: c1coc(CNc2nc3ccccc3n2CCN2CCOCC2)c1 was tested. Which inhibition did it give?
Answer: inactive: 5.79%

Question: With O=C(Cn1cnc2c(OCc3ccccc3)ncnc21)NCCc1c[nH]c2ccccc12 as the compound, how does the inhibition read?
Answer: inactive: -7.56%

Question: For CC(CNC(=O)Cn1cnc2c(OCc3ccccc3)ncnc21)c1ccccc1 (configuration not stated), which inhibition is on record?
Answer: inactive: -8.1%

Question: O=C(CCCCCNC(=O)N1CCn2c1nc1ccccc12)N[C@H](Cc1ccccc1)C(=O)O was tested. Which inhibition did it give?
Answer: inactive: 0.47%

Question: How did the inhibition turn out when CC1CN(C(=O)Cn2c(C(F)(F)F)nc3ccccc32)CC(C)O1 (configuration not stated) was run?
Answer: inactive: -4.86%

Question: CCc1cccc(NC(=O)Cn2c3[n+](c4ccc(C(F)(F)F)cc42)CCCCC3)c1 was tested. Which inhibition did it give?
Answer: inactive: 1.57%

Question: For NC(=O)CC(NC(=O)Cc1ccc(Cl)cc1)c1ccc(NC2CCN(Cc3ccccc3)CC2)c([N+](=O)[O-])c1 (configuration not stated), which inhibition is on record?
Answer: inactive: -9.17%

Question: How did the inhibition turn out when Cn1c(=O)n(Cc2ccccc2F)c(=O)c2c1nc1n2CCN1Cc1ccco1 was run?
Answer: inactive: 1.24%

Question: For COC(=O)[C@H](Cc1ccccc1)NC(=O)Cn1cnc2c(OCc3ccccc3)ncnc21, which inhibition is on record?
Answer: inactive: -1.13%

Question: COc1cccc(NC(=S)N2CCn3c(nc4ccccc43)C2)c1 was tested. Which inhibition did it give?
Answer: inactive: -3.58%

Question: Which inhibition does the source give for CC(C)C[C@H](NC(=O)N1CCn2c1nc1ccccc12)C(=O)NCc1ccc2c(c1)OCO2 here?
Answer: inactive: -7.87%

Question: Cc1ccc(OCC(O)Cn2c(=N)n(CCN3CCCCC3)c3ccccc32)cc1 (configuration not stated) was tested. Which inhibition did it give?
Answer: inactive: 16.6%

Question: With N=c1n(CCN2CCCCC2)c2ccccc2n1CC(O)c1cccc(Br)c1 (configuration not stated) as the compound, how does the inhibition read?
Answer: inactive: -13.8%

Question: CCN(CC)CCn1c(NCc2ccco2)nc2ccccc21 was tested. Which inhibition did it give?
Answer: inactive: -24.4%

Question: Which inhibition does the source give for CS(=O)(=O)N1CCn2c1nc1ccccc12 here?
Answer: inactive: -11.1%

Question: Which inhibition does the source give for Cc1nc2ccccc2n1CC(=O)N/N=C\C=C\c1ccccc1 here?
Answer: inactive: 1.57%

Question: CCN(CC)c1ccc(CNc2nc3ccccc3n2CCN2CCCCC2)cc1 was tested. Which inhibition did it give?
Answer: inactive: 10.1%

Question: With Cn1c(=O)c2ncn(CC(=O)N/N=C/C=C/c3ccccc3)c2n(C)c1=O as the compound, how does the inhibition read?
Answer: inactive: 0.08%

Question: With COc1ccccc1C(=O)Nc1ccc2c(c1)nc1n2CCN(Cc2ccccc2)C1 as the compound, how does the inhibition read?
Answer: inactive: -7.74%

Question: Which inhibition does the source give for Cc1ccc(NC(=O)C2CC(=O)Nc3nc4ccccc4n32)c(C)c1 (configuration not stated) here?
Answer: inactive: 14.2%

Question: For O=C(CCNC(=O)N1CCn2c1nc1ccccc12)NCc1ccccc1, which inhibition is on record?
Answer: inactive: -1.73%

Question: COc1ccc(N(C(=O)Cn2cnc3ccccc32)C(C(=O)NC2CCCCC2)c2ccccc2)cc1 (configuration not stated) was tested. Which inhibition did it give?
Answer: inactive: 4.97%

Question: For Cc1ccc2c(c1)C1CN(C)CCC1N2C(=O)c1cccc(S(=O)(=O)N2CC(C)CC(C)C2)c1 (configuration not stated), which inhibition is on record?
Answer: inactive: 10.1%

Question: With Cn1c(=O)c2c(nc(N3CCCCC3)n2CCNC2=NCCC2)n(C)c1=O as the compound, how does the inhibition read?
Answer: inactive: 9.37%

Question: COc1ccccc1CNC(=O)COC(=O)C(O)(c1ccccc1)c1ccccc1 was tested. Which inhibition did it give?
Answer: inactive: -0.86%

Question: O=C(Cn1cnc2c(OCc3ccccc3)ncnc21)N[C@H](CO)Cc1cc2ccccc2[nH]1 was tested. Which inhibition did it give?
Answer: inactive: 0.69%

Question: With COc1ccc(Cl)cc1NC(=O)Cn1c(NCCO)nc2ccccc21 as the compound, how does the inhibition read?
Answer: inactive: -12.3%

Question: How did the inhibition turn out when CCN1C(=O)CC(N2CCC(Nc3ccc(OC)cc3)CC2)C1=O (configuration not stated) was run?
Answer: inactive: 5.9%

Question: With O=C(CSc1nc2ccccc2n1CC(=O)NCc1ccccc1)NCc1ccco1 as the compound, how does the inhibition read?
Answer: inactive: 3.7%

Question: How did the inhibition turn out when Cn1c(=O)c2ncn(CC(=O)NCCOc3ccc(C(C)(C)C)cc3)c2n(C)c1=O was run?
Answer: inactive: -4.85%

Question: Which inhibition does the source give for CC(=O)Nc1ccc(NC(=O)C2CC(=O)Nc3nc4ccccc4n32)cc1 (configuration not stated) here?
Answer: inactive: 5.87%

Question: With O=S(=O)(c1ccc(Br)cc1)N1CCn2c(nc3ccccc32)C1 as the compound, how does the inhibition read?
Answer: inactive: -12.6%

Question: Which inhibition does the source give for Cn1c(=O)c2c(ncn2CC(=O)N/N=C/C=C/c2ccccc2)n(C)c1=O here?
Answer: inactive: 14.4%

Question: O=S(=O)(c1ccc(Cl)c(Cl)c1)N1CCc2nc3ccccc3n2CC1 was tested. Which inhibition did it give?
Answer: inactive: -6.12%

Question: How did the inhibition turn out when COc1ccc(CN(C)C(=O)Cn2cnc3c(SC)nc(N)nc32)cc1OC was run?
Answer: inactive: 9.51%

Question: Which inhibition does the source give for CC1CC(C)CN(Cc2nc3c(c(=O)n(C)c(=O)n3C)n2CCN2CCOCC2)C1 (configuration not stated) here?
Answer: inactive: 4.67%

Question: O=S(=O)(Nc1ccc2c(c1)nc1n2CCN(Cc2ccccc2)C1)c1ccccc1 was tested. Which inhibition did it give?
Answer: inactive: -19.3%

Question: CCCC1OP(=O)(Nc2ccccc2)OCC1CC (configuration not stated) was tested. Which inhibition did it give?
Answer: inactive: 2.07%

Question: O=C(/C=C/c1ccccc1)OC1CN2CCC1CC2 (configuration not stated) was tested. Which inhibition did it give?
Answer: inactive: -16.2%

Question: How did the inhibition turn out when COc1cccc(NC(=O)Cn2c(SCC(=O)N3CCOCC3)nc3ccccc32)c1 was run?
Answer: inactive: -18.7%

Question: How did the inhibition turn out when COc1cccc(C(=O)N2CCn3c2nc2ccccc23)c1 was run?
Answer: inactive: -6.46%

Question: For COc1ccc(Cc2nc3ccccc3n2CC(=O)N/N=C/c2ccc(C)cc2O)cc1OC, which inhibition is on record?
Answer: inactive: -3.63%

Question: How did the inhibition turn out when CN1CN(c2ccccc2)C2(CCN(CCCSc3ccccc3NC(=O)/C=C/c3ccccc3)CC2)C1=O was run?
Answer: inactive: 13.7%

Question: For CCN(c1ccccc1)S(=O)(=O)c1ccc(OC)c(NC(=O)Cn2cnc3c2c(=O)n(C)c(=O)n3C)c1, which inhibition is on record?
Answer: inactive: 2.82%

Question: Which inhibition does the source give for CCN(CC)c1ccc(NC(=O)Cn2c(C(C)NC(=O)c3ccccc3)nc3ccccc32)cc1 (configuration not stated) here?
Answer: inactive: 6.85%

Question: With Cc1ccc(C(=O)OC2CN3CCC2CC3)cc1 (configuration not stated) as the compound, how does the inhibition read?
Answer: inactive: 4.97%

Question: How did the inhibition turn out when CC1CCC(C(C)C)C(OP(=O)(Nc2ccccn2)c2ccccc2)C1 (configuration not stated) was run?
Answer: inactive: -2.98%

Question: Which inhibition does the source give for CCN(CC)C(=O)Cn1c(=O)n(C)c2ccccc21 here?
Answer: inactive: -11.8%

Question: Which inhibition does the source give for Cc1nn(-c2ccccc2)c2c1P(=O)(N1CCOCC1)N(C)C(c1ccccc1)=N2 (configuration not stated) here?
Answer: inactive: -7.32%

Question: With Cc1cccc(Cn2c(=O)c3c(nc4n3CCN4Cc3ccco3)n(C)c2=O)c1 as the compound, how does the inhibition read?
Answer: inactive: -7.35%

Question: For O=C(Cn1c(C(F)(F)F)nc2ccccc21)NCCN1CCCC1, which inhibition is on record?
Answer: inactive: -4.74%

Question: With Cc1cccc(C)c1NC(=O)N1CCC(n2c(=O)[nH]c3ccccc32)CC1 as the compound, how does the inhibition read?
Answer: inactive: -21.1%

Question: With c1ccc2c(c1)nc(-c1ccncc1)n2CCNc1nc(CN2CCCCC2)cs1 as the compound, how does the inhibition read?
Answer: inactive: -13.1%

Question: For CCn1cc(Cl)c(C(=O)Nc2nc3ccccc3n2CCN2CCCCC2)n1, which inhibition is on record?
Answer: inactive: 1.04%

Question: CCCC(=O)Nc1ccc(C(=O)/C=C/c2ccc(SC)cc2)cc1 was tested. Which inhibition did it give?
Answer: inactive: 1.81%

Question: Which inhibition does the source give for CC(C)(C)NC(=O)Cn1c(SCC(=O)NCc2cccs2)nc2ccccc21 here?
Answer: inactive: 1.94%

Question: For O=C(Cn1c(=O)n(CC2CS2)c2ccccc21)N1CCCCCC1 (configuration not stated), which inhibition is on record?
Answer: inactive: 8.81%

Question: How did the inhibition turn out when O=C(Cn1c(SCC(=O)N2CCc3ccccc32)nc2ccccc21)NC1CCCC1 was run?
Answer: inactive: -18.5%

Question: Which inhibition does the source give for O=C(Cn1cnc2ccccc21)Nc1cc(C(F)(F)F)ccc1N1CCOCC1 here?
Answer: inactive: -14.4%

Question: Cn1c(=O)c2c(ncn2CC(=O)Nc2ccc(Cl)cc2Cl)n(C)c1=O was tested. Which inhibition did it give?
Answer: inactive: 0.66%

Question: How did the inhibition turn out when COc1ccccc1N1CCN(C(=O)Cn2cnc3c2c(=O)n(C)c(=O)n3C)CC1 was run?
Answer: inactive: 14.9%

Question: How did the inhibition turn out when Cn1c(=O)[nH]c(=O)c2c1nc(CN1CCN(c3cccc(Cl)c3)CC1)n2CCN1CCOCC1 was run?
Answer: inactive: 10.7%

Question: How did the inhibition turn out when CSc1nc(N)nc2c1ncn2CC(=O)NCC1CCCO1 (configuration not stated) was run?
Answer: inactive: 8.51%

Question: For O=C(Cn1c(-c2ccccc2Cl)nc2ccccc21)Nc1cccc(Cl)c1, which inhibition is on record?
Answer: inactive: 6.03%

Question: With Cn1c(=O)c2ncn(CC(=O)NCCOCc3ccccc3Cl)c2n(C)c1=O as the compound, how does the inhibition read?
Answer: inactive: 3.37%

Question: For Cn1c(=O)c2c(ncn2CC(=O)Nc2ccccc2Sc2ccccc2)n(C)c1=O, which inhibition is on record?
Answer: inactive: 11.2%

Question: With Cc1ccc(NC(=O)Cn2cnc3c(NCc4ccccc4)ncnc32)cc1C as the compound, how does the inhibition read?
Answer: inactive: 8.13%

Question: Which inhibition does the source give for Cc1ccc2c(c1)C1C[N+](C)(CC(=O)Nc3ccccc3Cl)CCC1N2C(=O)c1ccccc1Cl (configuration not stated) here?
Answer: inactive: 3.79%

Question: Nc1cccc([As](=O)(O)c2ccccc2)c1 was tested. Which inhibition did it give?
Answer: inactive: -9.09%

Question: Which inhibition does the source give for CCOCN(C(=O)Cn1c(COC)nc2ccccc21)c1c(C)cccc1CC here?
Answer: inactive: 3.38%

Question: With Cc1ccc2c(c1)C1CN(C)CCC1N2C(=O)Cn1nnc(-c2ccccc2F)n1 (configuration not stated) as the compound, how does the inhibition read?
Answer: inactive: 0.47%

Question: Cn1c(CNc2nc3ccccc3n2CCN2CCCCC2)nc2ccccc21 was tested. Which inhibition did it give?
Answer: inactive: -5.26%

Question: For Cc1ccc(S(=O)(=O)N2CCN(C(=O)Cn3cnc4c3c(=O)n(C)c(=O)n4C)CC2)cc1C, which inhibition is on record?
Answer: inactive: 7.35%

Question: For Cc1cc(NC(=O)Cn2cnc3c2c(=O)n(C)c(=O)n3C)n(-c2ccccc2)n1, which inhibition is on record?
Answer: inactive: -2.4%

Question: With NS(=O)(=O)c1cccc(NC(=O)COC(=O)C(O)(c2ccccc2)c2ccccc2)c1 as the compound, how does the inhibition read?
Answer: inactive: 9.28%

Question: How did the inhibition turn out when O=C(NCCn1c(-c2ccncc2)nc2ccccc21)[C@H]1CCCN1c1nc(CN2CCCCC2)cs1 was run?
Answer: inactive: -2.23%

Question: With CC(C)C[C@H](NC(=O)N1CCn2c1nc1ccccc12)C(=O)NCc1ccco1 as the compound, how does the inhibition read?
Answer: inactive: 12.6%

Question: For COC(=O)[C@H](Cc1ccc(O)cc1)NC(=O)Cn1cnc2c(OCc3ccccc3)ncnc21, which inhibition is on record?
Answer: inactive: 3.91%

Question: Cc1ccc2c(c1)C1CN(C)CCC1N2C(=O)c1ccccc1NS(=O)(=O)c1ccc(F)cc1C (configuration not stated) was tested. Which inhibition did it give?
Answer: inactive: 4.73%

Question: For O=P1(Nc2ccc(Br)cn2)COc2ccccc2OC1, which inhibition is on record?
Answer: inactive: 3.96%

Question: With O=[As](O)(c1cccs1)c1cccs1 as the compound, how does the inhibition read?
Answer: inactive: -23.6%
